The record followed here is PubChem BioAssay AID602281 (The Scripps Research Institute Molecular Screening Center, 2012).

The chains behind the UniProt entries cited, without tags or fusion partners.
UniProt Q00G26, whole entry, looked up: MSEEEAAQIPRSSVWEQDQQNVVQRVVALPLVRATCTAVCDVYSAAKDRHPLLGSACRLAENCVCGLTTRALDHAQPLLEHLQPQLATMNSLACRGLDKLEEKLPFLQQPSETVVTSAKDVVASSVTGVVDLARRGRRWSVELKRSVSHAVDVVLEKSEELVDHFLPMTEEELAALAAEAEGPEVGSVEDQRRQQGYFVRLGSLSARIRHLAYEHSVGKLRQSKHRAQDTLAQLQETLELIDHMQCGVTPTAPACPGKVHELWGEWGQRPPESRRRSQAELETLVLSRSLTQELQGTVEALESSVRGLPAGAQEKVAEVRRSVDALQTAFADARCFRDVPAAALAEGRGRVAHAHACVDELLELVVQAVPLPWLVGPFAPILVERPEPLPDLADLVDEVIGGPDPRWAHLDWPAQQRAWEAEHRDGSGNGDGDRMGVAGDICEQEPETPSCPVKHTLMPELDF
UniProt Q8WTS1, whole entry, looked up: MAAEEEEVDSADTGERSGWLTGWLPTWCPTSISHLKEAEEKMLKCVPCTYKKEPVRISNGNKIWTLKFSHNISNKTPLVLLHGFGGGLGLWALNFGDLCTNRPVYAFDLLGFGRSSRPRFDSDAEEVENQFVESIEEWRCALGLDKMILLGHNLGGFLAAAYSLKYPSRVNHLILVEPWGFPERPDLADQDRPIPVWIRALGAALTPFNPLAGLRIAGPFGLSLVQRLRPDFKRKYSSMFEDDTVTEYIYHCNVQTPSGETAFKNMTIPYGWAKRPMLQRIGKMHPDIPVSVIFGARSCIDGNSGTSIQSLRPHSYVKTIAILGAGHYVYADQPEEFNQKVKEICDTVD

The structures appear in SMILES notation. The entries are a selection whose mix differs from that of the whole data set. Activity calls are given as the source filed them.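 The calls were made as follows: active = inhibition above the mean inhibition across every tested compound plus 3 SD (cut at about 22% in these data); inactive = the rest.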

In the experiment the target is Perilipin-5 (Homo sapiens) + 1-acylglycerol-3-phosphate O-acyltransferase ABHD5 (Homo sapiens) (UniProt Q00G26+Q8WTS1). The experiment is described as follows: blockers of ABHD5 binding to perilipin-5 – cell lysate, split luciferase complementation, luminescence, primary screen (AID 602281).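 Also: 0% = DMSO only wells and the 100% control is not disclosed.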 The conditions noted are these: Split G. princeps luciferase complementation, 4 h, at 4 µM, stronger effect = higher value.
In the case of `C[C@@H]1C=CCP(=O)(Oc2ccccc2)O1` (some centres not stated), the inhibition (usually the drop in the measured response relative to a control, in per cent) was inactive: -1.85%.
`Cc1ccc(OCC(=O)OC2CN3CCC2CC3)cc1` (configuration not stated): the inhibition was inactive: 2.42%.
